Source: ChEMBL document CHEMBL1130471, “RES-701-1/endothelin-1 hybrid peptide having a potent binding activity for type B receptor” (Bioorg Med Chem Lett, 1997)

These molecules were tested against T1, Endothelin receptor type B (Bos taurus, UniProt P28088) (assay: Binding activity to ET-B receptor on bovine cerebellum membrane).
T1 sequence (P28088 whole entry): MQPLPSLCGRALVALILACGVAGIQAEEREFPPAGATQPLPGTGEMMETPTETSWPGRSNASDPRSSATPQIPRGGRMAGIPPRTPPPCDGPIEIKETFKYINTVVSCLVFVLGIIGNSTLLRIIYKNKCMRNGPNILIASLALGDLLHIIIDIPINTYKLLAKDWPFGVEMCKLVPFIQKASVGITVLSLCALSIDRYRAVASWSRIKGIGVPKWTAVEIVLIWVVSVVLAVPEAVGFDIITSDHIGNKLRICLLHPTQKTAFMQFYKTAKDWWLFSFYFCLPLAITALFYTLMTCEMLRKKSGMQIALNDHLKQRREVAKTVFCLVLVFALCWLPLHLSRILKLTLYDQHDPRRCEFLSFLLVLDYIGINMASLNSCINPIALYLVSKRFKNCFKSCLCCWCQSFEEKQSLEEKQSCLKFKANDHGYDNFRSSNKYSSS
Format: tissue-based

SMILES	IC50 [nM]
CC[C@H](C)[C@H](NC(=O)[C@H](CC(=O)O)NC(=O)[C@H](CC(C)C)NC(=O)[C@H](Cc1c[nH]cn1)NC(=O)[C@H](C)NC(=O)[C@H](Cc1ccccc1)NC(=O)[C@H](Cc1ccc(O)cc1)NC(=O)[C@@H](NC(=O)[C@H](Cc1c[nH]c2ccccc12)NC(=O)[C@@H]1CC(=O)NCC(=O)N[C@@H](CC(N)=O)C(=O)N[C@@H](Cc2c[nH]c3ccccc23)C(=O)N[C@@H](Cc2c[nH]cn2)C(=O)NCC(=O)N[C@@H]([C@@H](C)O)C(=O)N[C@@H](C)C(=O)N2CCC[C@H]2C(=O)N1)C(C)C)C(=O)N[C@H](C(=O)N[C@@H](Cc1c[nH]c2ccccc12)C(=O)O)[C@@H](C)CC	0.24
CC[C@H](C)[C@H](NC(=O)[C@@H](NC(=O)[C@H](CC(=O)O)NC(=O)[C@H](CCC(N)=O)NC(=O)[C@H](Cc1c[nH]cn1)NC(=O)[C@H](C)NC(=O)[C@H](Cc1ccccc1)NC(=O)[C@H](Cc1ccc(O)cc1)NC(=O)[C@H](CC(C)C)NC(=O)[C@H](Cc1c[nH]c2ccccc12)NC(=O)[C@@H]1CC(=O)NCC(=O)N[C@@H](CC(N)=O)C(=O)N[C@@H](Cc2c[nH]c3ccccc23)C(=O)N[C@@H](Cc2c[nH]cn2)C(=O)NCC(=O)N[C@@H]([C@@H](C)O)C(=O)N[C@@H](C)C(=O)N2CCC[C@H]2C(=O)N1)C(C)C)C(=O)N[C@@H](Cc1c[nH]c2ccccc12)C(=O)O	3.8
CC[C@H](C)[C@H](NC(=O)[C@H](CC(=O)O)NC(=O)[C@H](CC(C)C)NC(=O)[C@H](Cc1c[nH]cn1)NC(=O)[C@H](C)NC(=O)[C@H](Cc1ccc(O)cc1)NC(=O)[C@H](Cc1ccc(O)cc1)NC(=O)[C@@H](NC(=O)[C@H](Cc1c[nH]c2ccccc12)NC(=O)[C@@H]1CC(=O)NCC(=O)N[C@@H](CC(N)=O)C(=O)N[C@@H](Cc2c[nH]c3ccccc23)C(=O)N[C@@H](Cc2c[nH]cn2)C(=O)NCC(=O)N[C@@H]([C@@H](C)O)C(=O)N[C@@H](C)C(=O)N2CCC[C@H]2C(=O)N1)C(C)C)C(=O)N[C@H](C(=O)N[C@@H](Cc1c[nH]c2ccccc12)C(=O)O)[C@@H](C)CC	2.5
